We go through one compound from patent US6342508B1, “N-hydroxy-2-(Alkyl,Aryl or Heteroaryl sulfanyl, sulfinyl or sulfonyl) 3-substituted alkyl, aryl or heteroarylamides as matrix metalloproteinase inhibitors” (American Cyanamid Company, priority 1997, dated 2002).

Protein sequences, listed by entry. Tags and fused reporters are not part of them. Residues count along the entry.
UniProt P14780, 94-707: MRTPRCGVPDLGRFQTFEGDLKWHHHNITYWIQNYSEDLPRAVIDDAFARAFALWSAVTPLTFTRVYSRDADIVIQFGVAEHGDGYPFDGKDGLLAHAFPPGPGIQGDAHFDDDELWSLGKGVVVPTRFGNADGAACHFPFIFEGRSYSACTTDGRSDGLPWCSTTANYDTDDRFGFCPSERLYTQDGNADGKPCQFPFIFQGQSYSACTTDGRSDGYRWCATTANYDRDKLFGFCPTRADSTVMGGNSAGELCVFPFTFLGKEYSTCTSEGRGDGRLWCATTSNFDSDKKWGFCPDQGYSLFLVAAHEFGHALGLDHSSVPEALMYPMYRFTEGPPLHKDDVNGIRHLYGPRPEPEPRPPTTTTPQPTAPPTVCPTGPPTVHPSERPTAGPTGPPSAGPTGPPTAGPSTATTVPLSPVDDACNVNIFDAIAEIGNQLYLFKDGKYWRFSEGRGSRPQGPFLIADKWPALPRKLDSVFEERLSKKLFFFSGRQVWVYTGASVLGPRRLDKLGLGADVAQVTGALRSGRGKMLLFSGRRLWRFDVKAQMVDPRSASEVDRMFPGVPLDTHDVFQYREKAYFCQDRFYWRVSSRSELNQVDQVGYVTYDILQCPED

For this assay, the target named is T1, MMP 9 (Homo sapiens, UniProt P14780).
T1 construct: The stock of human neutrophil gelatinase B is diluted with assay buffer; from tissue; host or cells: human neutrophils
Put plainly: In Vitro Gelatinase Assay (human neutrophil gelatinase B, thiopeptide substrate/DTNB). It is filed as biochemical.

`COc1ccc(CS(=O)(=O)C(C)(Cc2ccccc2)C(=O)NO)cc1` (stereo not shown) [Example 41, N-Hydroxy-2-(4-methoxy-phenylmethanesulfonyl)-2-methyl-3-phenyl propionic acid hydroxamide] came in with an IC50 of 10.8 nM.
